# Source: PubChem BioAssay (ICCB-Longwood Screening Facility, Harvard Medical School)
# GIV Gai3 FP – blocks GIV peptide binding to rat Galpha-i3. P08753. Galpha-i3/FITC-GIV peptide fluorescence polarization, 90 min; hits give low values; scaled: aluminum fluoride 0%, vehicle 100%. percent of control (FP), % (concentration not given with the values). actives 0.42% (n = 210,000). AID 1224905;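 active = replicate mean at 85% of control or lower, very high polarization wells dropped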;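 also: wells of about 15 µL received 100 nL stock; the first replicate is given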
# HCMV NEC inh – inhibitors of HCMV UL50-UL53 nuclear egress complex interaction. HTRF UL50-UL53 interaction, normalized percent inhibition. inhibition, % (no concentration beside the values). 190,000 tested, 0.15% active; in the data active means inhibition above about 27%, passing the limit was not always enough
# GIV-Gai FP conf – confirmation of inhibitors of GIV binding to rat Galpha-i3; shares compounds with GIV Gai3 FP; FITC-GIV peptide binding to Galphai3, fluorescence polarization; active compounds read low; fluorescence polarization, mP at 100 µM; 580 tested, 38% active; AID 1259350;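 active means inhibition score of 15 or more, meaning 100 minus mean polarization as percent of control over three replicates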;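 further: lower mP means peptide displaced from Galphai3 so more inhibition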
# GIV Gai AS conf – confirmation of inhibitors of GIV binding to human Galpha-i3 | AID 1259351 | 580 tested, 39% active | AlphaScreen Galphai3-GIV binding, purified proteins, 90 min; active compounds read low | AlphaScreen counts at 100 µM | shares compounds with GIV Gai3 FP;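 active means inhibition score at or above a set limit, where the score is 100 minus the three-replicate mean percent of control signal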
# * marks the source's active call; other numbers are inactive results; · = no result given. Only some compounds are listed: those with a hit (about 0.43% of all), similar ones and a draw of the others.
# Fields – GIV Gai3 FP	HCMV NEC inh	GIV-Gai FP conf	GIV Gai AS conf
CC1(C)N2CC3([N+](=O)[O-])CN1CC([N+](=O)[O-])(C2)C3(C)C
  92	·	64	45009
COc1ccc(CCNC(=O)C(C)C2Sc3ccccc3N(Cc3ccccc3F)C2=O)cc1OC (stereo not drawn)
  102	-9	·	·
COc1ccc(-c2c(C#N)c(N)n3c(nc4ccccc43)c2C#N)cc1O
  105	·	·	·
COc1ccc(-c2c(C#N)c(N)n3c(nc4ccccc43)c2C#N)cc1OC
  83*	-8	63	61581
CON(C)c1ncnc2scc(-c3ccc(C)cc3)c12
  ·	-34	·	·
CC(=O)Nc1ccccc1-c1nc2ccccc2n(CC(=O)c2ccc(C)c(C)c2)c1=O
  101	3	·	·
CC1=CC(=C2C(=O)c3ccccc3C2=O)C=C(C)N1C(C)C
  73*	-113	71	40071
CC1=CC(=C2C(=O)c3ccccc3C2=O)C=C(C)N1CCO
  91	-52	·	·
CCOC(=O)c1ccc(-c2ccc(/C=c3/sc4nc5c(C)c(C)ccc5n4c3=O)o2)cc1
  79*	·	66	32406
CCOc1cc(/C=c2\sc3nc4c(C)c(C)ccc4n3c2=O)cc(Cl)c1O
  ·	0	·	·
COCCNC(=O)c1cc(C)nc2c1c(=O)n(C)c(=O)n2C
  101	-22	·	·
Cc1[nH]n(-c2ccccc2)c(=O)c1C(c1cccc([N+](=O)[O-])c1)c1c(C)[nH]n(-c2ccccc2)c1=O
  103	·	·	·
Cc1[nH]n(-c2ccccc2)c(=O)c1C(c1ccccc1)c1c(C)[nH]n(-c2ccccc2)c1=O
  77*	·	63	18252*
COc1ccccc1C(c1c(C)[nH]n(-c2ccccc2)c1=O)c1c(C)[nH]n(-c2ccccc2)c1=O
  74*	·	66	42679
COc1cc(C(c2c(C)[nH]n(-c3ccccc3)c2=O)c2c(C)[nH]n(-c3ccccc3)c2=O)ccc1O
  120	·	·	·
Cc1[nH]n(-c2ccccc2)c(=O)c1C(c1ccc(N(C)C)cc1)c1c(C)[nH]n(-c2ccccc2)c1=O
  104	·	·	·
CCOc1ccccc1C(c1c(C)[nH]n(-c2ccccc2)c1=O)c1c(C)[nH]n(-c2ccccc2)c1=O
  113	·	·	·
Cc1[nH]n(-c2ccccc2)c(=O)c1C(c1cccc(Br)c1)c1c(C)[nH]n(-c2ccccc2)c1=O
  74*	·	68	23480*
Cc1[nH]n(-c2ccccc2)c(=O)c1C(c1cccc(O)c1)c1c(C)[nH]n(-c2ccccc2)c1=O
  66*	·	51*	11539*
Cc1nn(-c2ccc3nncn3n2)c(C)c1CCC(=O)NCCC1=CCCCC1
  104	·	·	·
O=C(c1nc2ccccc2[nH]1)N1CCOCC1
  ·	-22	·	·
Cc1[nH]n(-c2ccccc2)c(=O)c1C(c1ccc(OCc2ccccc2Cl)cc1)c1c(C)[nH]n(-c2ccccc2)c1=O
  107	·	·	·
CCCCCCCOc1ccc(C(c2c(C)[nH]n(-c3ccccc3)c2=O)c2c(C)[nH]n(-c3ccccc3)c2=O)cc1
  82*	·	73	41609
Cc1cccc2oc3cc(Nc4ccccc4)c4c(=O)c5ccccc5c(=O)c4c3[nH]c12
  104	-8	·	·
S=c1[nH]nc(C2COc3ccccc3O2)o1 (stereo not drawn)
  83*	-1	68	3039*
S=c1nc(C2COc3ccccc3O2)[nH][nH]1 (stereo not drawn)
  ·	-2	·	·
Cc1ccccc1C(=O)Nc1ccc(-c2nc(-c3ccccc3)no2)cc1
  110	-12	·	·
Cc1cccc(C)c1OCCN1C(=O)C(C)CNc2ccccc21 (stereo not drawn)
  101	-12	·	·
COc1ccc(Br)cc1C1SCC(=O)N1c1ccc(NC(C)=O)cc1 (stereo not drawn)
  103	-11	·	·
CCC(C)NC(=O)c1[nH]c2cc(C)ccc2c1Sc1ccc(Cl)cc1 (stereo not drawn)
  101	-14	·	·

# Four consecutive records from above, quoted:
# Fields – GIV Gai3 FP	HCMV NEC inh	GIV-Gai FP conf	GIV Gai AS conf
O=C(c1nc2ccccc2[nH]1)N1CCOCC1
  ·	-22	·	·
Cc1[nH]n(-c2ccccc2)c(=O)c1C(c1ccc(OCc2ccccc2Cl)cc1)c1c(C)[nH]n(-c2ccccc2)c1=O
  107	·	·	·
CCCCCCCOc1ccc(C(c2c(C)[nH]n(-c3ccccc3)c2=O)c2c(C)[nH]n(-c3ccccc3)c2=O)cc1
  82*	·	73	41609
Cc1cccc2oc3cc(Nc4ccccc4)c4c(=O)c5ccccc5c(=O)c4c3[nH]c12
  104	-8	·	·

# Carrying on:
# Fields – GIV Gai3 FP	HCMV NEC inh	GIV-Gai FP conf	GIV Gai AS conf
Cc1ccc2c(Sc3ccc(Cl)cc3)c(C(=O)NC(C)C)[nH]c2c1
  57*	-16	60	42527
CC1(C)CC(=O)C2C(=Nc3ccccc3N=C2c2ccccc2)C1 (stereo not drawn)
  ·	-2	·	·
COc1ccc(NC(=O)CSc2nnc3c4sc(N5CCCC5)nc4ncn23)cc1
  109	·	·	·
O=C(CSc1nnc2c3sc(N4CCCC4)nc3ncn12)Nc1ccccc1
  81*	·	81	31906
Cc1ccc(C)n1-c1cc(Cl)ccc1C(=O)O
  60*	80*	59*	2339*
CCCOc1ccc(Cl)cc1C(=O)O
  100	3	·	·
CC(=O)Nc1ccc(-n2c(C)ccc2C)c(C(=O)O)c1
  ·	5	·	·
Cc1ccc(C)n1-c1ccccc1C(=O)O
  5.7*	30	11*	1962*
